Molecular target: T. gondii adenosine kinase (Toxoplasma gondii, UniProt Q9TVW2)
Experiment: biochemical
Settings: AppKi for inhibition of T. gondii adenosine kinase, 5 μM adenosine; ± range, at least two estimations
Description: Preparation of cytosol extracts. For the structure activity relationships studies, approximately 5×10^8 T. gondii were suspended in 1.2 ml of 50 mM N-2-hydroxyethylpiperazine-N'-2-ethanesulfonic acid (HEPES)-Cl (pH 8.0)/1 mM dithiothreitol and homogenized for 30 seconds at setting 10, using a Brinnmann Instruments Polytron homogenizer fitted with a PTA 7K1 probe. The homogenate was then centrifuged at approximately 116,000 g for 1 hour at 5° and the supernatant (cytosol extract) collected and used as the enzyme source. Fresh cytosol extracts were prepared for each experiment.
Adenosine kinase assay. T. gondii adenosine kinase activity was measured by following the formation of [^14 C]AMP from [^14 C]adenosine and ATP. […]
Reactions were started by the addition of [8-^14 C]adenosine, incubated at 37° for 10 minutes and terminated by placing the reaction tubes in a boiling water bath for 2 minutes. […] The substrate and product spots (which accounted for all of the radioactivity on the plates) were identified by UV quenching, cut out, and the radioactivity quantitated by liquid scintillation counting in 20 ml of Scintilene, using a Packard 460 scintillation counter. […] Enzyme velocity was calculated by multiplying the fraction of AMP formed from adenosine times the amount of adenosine in the assay, and dividing by the incubation time. […]

The chains behind the UniProt entries cited, without tags or fusion partners. Where a name states a change or a piece, a line headed by the entry shows the natural chain unless it says otherwise.
UniProt Q9TVW2: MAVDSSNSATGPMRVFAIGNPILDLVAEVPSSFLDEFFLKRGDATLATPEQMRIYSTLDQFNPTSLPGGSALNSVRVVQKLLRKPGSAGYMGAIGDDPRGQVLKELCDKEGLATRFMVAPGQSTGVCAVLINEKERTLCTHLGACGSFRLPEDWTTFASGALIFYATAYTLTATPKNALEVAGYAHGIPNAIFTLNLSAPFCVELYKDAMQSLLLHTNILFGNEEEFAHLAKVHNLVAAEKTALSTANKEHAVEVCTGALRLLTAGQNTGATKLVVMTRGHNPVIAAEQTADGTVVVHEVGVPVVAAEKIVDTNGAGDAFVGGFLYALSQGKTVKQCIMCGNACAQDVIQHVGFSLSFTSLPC

NC[C@H]1O[C@@H](n2cnc3c(N)ncnc32)[C@H](O)[C@@H]1O [Compound 94, 5'-Amino-5'-deoxyadenosine]
Ki: 220 ± 40 µM

— patent US5773424A, “Treatment of toxoplasmosis” (priority 1994, dated 1998)
